gsp antagonist: qHTS for Antagonists of gsp, the Etiologic Mutation Responsible for Fibrous Dysplasia/McCune-Albright Syndrome: qHTS | gsp-mutant cells, cAMP HTRF, 30 min | Potency, µM (highest dose often 76.9 µM), inactives show at the highest dose activity change, negative = inhibition, hits mostly inhibitors | actives 0.4% (n = 340,000) | AID 624288, 2012; calls by dose curve; cell line not stated here;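 also: intracellular cAMP measured with PDE inhibitor Ro 20-1724 present during compound exposure; % is scaled to controls: 0 for no effect and ±100 for the full control effect; nearly all actives have a fitted effect of over 65% in size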
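Cells in G418 medium, seeded 16-24 h, 37C; buffer exchange to DPBS + 1 mM CaCl2, 0.5 mM MgCl2, 0.05% BSA; cpds in DMSO + […] (300 uM stock), 30 min 37C; HTRF cAMP detection.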
Rango dissoc inh: qHTS Assay for Inhibitors of RanGTP induced Rango (Ran-regulated importin-beta cargo) - Importin beta complex dissociation; Snurportin-1 (Homo sapiens) + GTP-binding nuclear protein Ran (Homo sapiens) + Importin …; Biochemical FRET Rango-importin beta, RanGTP-induced dissociation; Potency, µM (titrated, usually from 46.1 µM), for inactives: at the highest dose activity change, negative = inhibition; actives 0.071% (n = 340,000); AID 540253, 2011; also: % of control where 0% means no effect; nearly all actives have a fitted effect of over 45% in size
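FRET read at 45 min, room temperature: inhibitors block the CFP/YFP signal rise when RanGTP (0.6 uM Ran, 2 mM GTP, 0.2 uM RCC1) frees Rango (0.1 uM) from importin beta (0.25 uM). Pre-read after 5 min compound exposure flags interference.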
gsp agonist: qHTS for Agonist of gsp, the Etiologic Mutation Responsible for Fibrous Dysplasia/McCune-Albright Syndrome: qHTS. gsp mutant cells, cAMP HTRF, 30 min. Potency, µM (highest dose often 76.9 µM), without a hit: at the top dose activation (cAMP increase), usual class: activators. actives 0.13% (n = 340,000). AID 624287, 2012; active = well fitted activation curve with a large enough effect; inconclusive = small, poorly fitted or top-dose-only effect, or another doubt; inactive = no such curve, though single readings can be large or run the other way; cell line not stated here;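 also: phosphodiesterase inhibitor Ro 20-1724 added with compounds to block cAMP breakdown; nearly all actives have a fitted effect of over 60% in size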
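Cells stably selected in G418 were plated at 2000/well, grown 16-24 hr, then given compounds in DMSO with the PDE inhibitor […] (300 uM solution added) for 30 min at 37C; cAMP was read by HTRF.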
Rango-impB inh: qHTS Assay for Inhibitors of Rango (Ran-regulated importin-beta cargo) - Importin beta complex formation. Importin subunit beta-1 (Homo sapiens), Q14974. Rango CFP/YFP FRET sensor + importin beta, 45 min. Potency, µM (top dose mostly 92.2 µM), inactives show at the top dose inhibition of complex formation. actives 0.031% (n = 340,000);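 also: 0% = DMSO wells and 100% = buffer wells lacking importin beta; nearly all actives have a fitted effect of over 15% in size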
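FRET biosensor Rango (snurportin 1 IBB between N-terminal EYFP and C-terminal Cerulean), 50 nM in PBS/1 mM DTT/0.02% Tween-20/0.1% BSA, preincubated 5 min RT with compound; 0.125 microM importin beta added, 45 min RT, CFP/YFP FRET ratio read.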
Starred values were filed as active, the others as inactive; ? = inconclusive; / = no result given; [ ] = dose if it differs, or a comment. A selection: hits, their analogues and other compounds. The true share with any hit is near 0.66%. Unless noted, calls follow the shape of the full dose curve. Potency is read from the fitted curve at half-maximal effect.

The chains behind the UniProt entries cited, without tags or fusion partners.
Importin subunit beta-1 (Homo sapiens), Q14974, UniProt Q14974, whole entry, looked up: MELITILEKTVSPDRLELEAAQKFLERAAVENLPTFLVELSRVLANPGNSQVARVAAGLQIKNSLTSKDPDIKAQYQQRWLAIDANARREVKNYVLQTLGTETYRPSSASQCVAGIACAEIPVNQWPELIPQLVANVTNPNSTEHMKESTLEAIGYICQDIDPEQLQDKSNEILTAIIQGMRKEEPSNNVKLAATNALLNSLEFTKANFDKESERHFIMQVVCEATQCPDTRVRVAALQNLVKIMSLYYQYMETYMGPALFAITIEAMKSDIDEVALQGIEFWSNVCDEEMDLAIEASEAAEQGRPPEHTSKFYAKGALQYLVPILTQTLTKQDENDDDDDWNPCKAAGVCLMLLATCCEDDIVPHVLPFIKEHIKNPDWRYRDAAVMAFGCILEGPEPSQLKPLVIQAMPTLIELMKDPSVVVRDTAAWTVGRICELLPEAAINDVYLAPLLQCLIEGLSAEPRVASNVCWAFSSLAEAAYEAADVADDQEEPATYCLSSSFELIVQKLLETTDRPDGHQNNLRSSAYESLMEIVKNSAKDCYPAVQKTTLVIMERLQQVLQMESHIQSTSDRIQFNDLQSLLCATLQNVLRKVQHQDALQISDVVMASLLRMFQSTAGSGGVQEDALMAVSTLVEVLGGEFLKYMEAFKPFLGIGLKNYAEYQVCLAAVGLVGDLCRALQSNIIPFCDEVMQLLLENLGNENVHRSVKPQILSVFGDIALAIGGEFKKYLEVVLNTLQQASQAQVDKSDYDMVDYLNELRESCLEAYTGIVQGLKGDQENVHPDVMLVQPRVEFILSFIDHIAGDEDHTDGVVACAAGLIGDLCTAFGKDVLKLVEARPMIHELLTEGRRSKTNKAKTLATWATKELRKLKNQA

[1] CN(C)c1ccc(N/C=C/C(=O)c2ccccc2)cc1
[2] Clc1ccc(-c2nnc(CSc3nnc(-c4cccs4)n3Cc3ccccc3)o2)cc1
[3] COC(=O)CCC(=O)OC1(C)C(=O)C2=CN(c3ccc(OC)cc3)C(c3ccc(OC)cc3)=CC2=C(Br)C1=O (stereo not drawn)
[4] COC(=O)CCC(=O)OC1(C)C(=O)C2=CN(C3CCCC3)C(c3ccc(OC)cc3)=CC2=C(Br)C1=O (stereo not drawn)
[5] COc1ccc(S(=O)(=O)N=N/C=C2\C=CC=CN2O)cc1OC
[6] Cc1cc(C)n(-c2nc3ccccc3n3cnnc23)n1
Screen / compound no.	1	2	3	4	5	6
Rango dissoc inh	6%	16%	?	9.2µM*	/	4%
gsp antagonist	-11%	25µM*	-16%	-23%	/	5%
Rango-impB inh	?	-3%	?	?	/	5%
gsp agonist	9%	11%	/	/	15%	12%

[7] CCN(CC)c1nc2ccccc2nc1-n1nc(C)cc1C
[8] Cc1ccc(OCC(=O)Nc2cccc(S(=O)(=O)N3CCCC3)c2)cc1C
[9] Cc1ccc(C)c(C(=O)OCC(=O)Nc2cccc(S(=O)(=O)N3CCCCC3)c2)c1
[10] CC(=O)c1c(C)[nH]c(C(=O)OCC(=O)Nc2cccc(S(=O)(=O)N3CCCC3)c2)c1C
[11] O=C(COc1ccc2ccc(=O)oc2c1)Nc1cccc(S(=O)(=O)N2CCCCC2)c1
[12] CC(=O)c1c(C)[nH]c(C(=O)OCC(=O)Nc2cc(S(=O)(=O)N3CCCC3)ccc2Cl)c1C
Screen / compound no.	7	8	9	10	11	12
Rango dissoc inh	15µM*	/	-6%	0%	-9%	-10%
gsp antagonist	-4%	/	25µM*	32µM*	28µM*	-10%
Rango-impB inh	?	/	0%	-3%	-3%	1%
gsp agonist	?	-1%	5%	-71%	?	9%

[13] CC(=O)Nc1c(Cl)cnn(-c2ccccc2)c1=O
[14] O=C(O)c1ccc(-n2ncc(Cl)c(Cl)c2=O)cc1
[15] Cc1ccc(S(=O)(=O)N2CC3(O)CN(C(=O)OC(C)C)N(C(=O)OC(C)C)CC3(OC(=O)NC3CCCC3)C2)cc1 (stereo not drawn)
[16] COc1cccc(N/C=C/C(=O)c2ccc(C)cc2)c1
[17] COc1cccc(N/C=C/C(=O)c2ccc(Cl)cc2)c1
[18] Cc1ccc(/C=C2\SC(=S)N(CCC(=O)NNS(=O)(=O)c3ccccc3)C2=O)cc1
Screen / compound no.	13	14	15	16	17	18
Rango dissoc inh	3%	/	/	15µM*	?	10%
gsp antagonist	-11%	/	/	-14%	9%	50µM*
Rango-impB inh	1%	/	/	?	?	4%
gsp agonist	-1%	10µM*	18%	-28%	-19%[15.4 µM]	-14%[15.4 µM]

[19] O=C(CCCN1C(=O)/C(=C/c2cccs2)SC1=S)Nc1cccc(O)c1
[20] COc1ccc(/C=C2\SC(=S)N(CCC(=O)Nc3ccccc3C(=O)O)C2=O)cc1
[21] Cc1ccc(/C=C2\SC(=S)N(CCC(=O)NNC(=O)c3ccccc3O)C2=O)cc1
[22] O=C(CCN1C(=O)/C(=C/c2cccs2)SC1=S)Nc1cccc(O)c1
[23] COc1ccc(/C=C2\SC(=S)N(CCCC(=O)Nc3ccccc3C(=O)O)C2=O)cc1OC
[24] O=C(CCN1C(=O)/C(=C/c2cccs2)SC1=S)Nc1ccc(O)cc1
Screen / compound no.	19	20	21	22	23	24
Rango dissoc inh	-12%	10%	0%	-12%	?	-2%
gsp antagonist	45µM*	-12%	1%	40µM*	35µM*	1%
Rango-impB inh	5%	-2%	1%	1%	?	-1%
gsp agonist	-14%	16%	15%	-39%	?	11%

[25] Cc1ccc(S(=O)(=O)N(C)c2ccc(C(=O)NCC(c3ccccc3)N3CCCC3)cc2)cc1 (stereo not drawn)
[26] COc1ccccc1N(CC(=O)N1CCN(Cc2ccccc2)CC1)S(=O)(=O)c1ccccc1
[27] O=C(O)c1c(Cl)c(Cl)c(Cl)c(Cl)c1C(=O)OCC1CCCO1 (stereo not drawn)
[28] CCN1C(=O)[C@H]2[C@@H](c3ccc(OC)cc3)N[C@]3(CCCN(CC4CCCCC4)C3=O)[C@H]2C1=O
[29] CCOC(=O)N1CCN(C(=O)CSCC(=O)Nc2nc(-c3ccc(OC)cc3)cs2)CC1
[30] O=C(CSCC(=O)N1CCOCC1)Nc1nc(-c2ccccc2)cs1
Screen / compound no.	25	26	27	28	29	30
Rango dissoc inh	/	/	/	/	-3%	1%
gsp antagonist	/	/	/	/	28µM*	-15%
Rango-impB inh	/	/	/	/	2%	-1%
gsp agonist	-5%	-48%	-29%	-6%	-1%	?

Ordered by number of heavy atoms (low to high): 4 of the compounds above
[27] O=C(O)c1c(Cl)c(Cl)c(Cl)c(Cl)c1C(=O)OCC1CCCO1 (stereo not drawn)
[24] O=C(CCN1C(=O)/C(=C/c2cccs2)SC1=S)Nc1ccc(O)cc1
[29] CCOC(=O)N1CCN(C(=O)CSCC(=O)Nc2nc(-c3ccc(OC)cc3)cs2)CC1
[25] Cc1ccc(S(=O)(=O)N(C)c2ccc(C(=O)NCC(c3ccccc3)N3CCCC3)cc2)cc1 (stereo not drawn)
Screen / compound no.	27	24	29	25
Rango dissoc inh	/	-2%	-3%	/
gsp antagonist	/	1%	28µM*	/
Rango-impB inh	/	-1%	2%	/
gsp agonist	-29%	11%	-1%	-5%

Next part:
[31] CCOC(=O)N1CCN(C(=O)CSCC(=O)Nc2nc(-c3ccc(-c4ccccc4)cc3)cs2)CC1
[32] CCOC(=O)N1CCN(C(=O)CSCC(=O)Nc2nc(-c3ccc(Cl)s3)cs2)CC1
[33] CCCC(=O)Nc1nc(-c2ccc(Cl)s2)cs1
[34] COCOCCn1cc(CN2CCS(=O)(=O)N(Cc3ccc(-c4ccc(Cl)c(Cl)c4)cc3)C(C)C2=O)nn1 (stereo not drawn)
[35] O=C(c1cn(-c2ccccc2)nc1-c1cccnc1)N1CCN(S(=O)(=O)c2ccc(Cl)cc2)CC1
[36] N#CC(CC(=O)OCc1ccccc1)NC(=O)OCc1ccccc1 (stereo not drawn)
Screen / compound no.	31	32	33	34	35	36
Rango dissoc inh	14%	1%	-9%	/	-16%	/
gsp antagonist	25µM*	25µM*	0%	/	-14%	/
Rango-impB inh	3%	4%	-11%	/	-1%	/
gsp agonist	-59%	-29%	-4%	-15%	-9%	2%

[37] O=C(c1ccccc1)c1ccc(O)cc1O
[38] Cc1nn(-c2ccccc2)c(Cl)c1C(=O)N1CCN(c2ncnc3c2cnn3-c2ccccc2)CC1
[39] O=C1CC(C(=O)O)C(c2ccccc2)c2ccccc21 (stereo not drawn)
[40] Cc1cc(N2CCN(S(=O)(=O)c3ccc(Cl)cc3)CC2)c2ccccc2n1
[41] Cc1cc(N2CCN(S(=O)(=O)c3ccc(Cl)c(Cl)c3)CC2)c2ccccc2n1
[42] CCOC(=O)C(=CNc1ccc2c(c1)c1ccccc1n2CC)C(=O)OCC
Screen / compound no.	37	38	39	40	41	42
Rango dissoc inh	10%	15%	8%	-5%	6%	-14%
gsp antagonist	-10%	13µM*	8%	50µM*	-21%	32µM*
Rango-impB inh	58µM*	1%	7%	-3%	-5%	3%
gsp agonist	1%	22%	0%	-4%	2%	1%

[43] CCOC(=O)/C(C#N)=C\c1c(OCC)n(CC)c2ccccc12
[44] CCCC(=O)Nc1ccc2c(c1)c1ccccc1n2CC
[45] CCc1ccc(CNC(=O)C2CCN(S(=O)(=O)N3CCCCC3)CC2)cc1
[46] O=C(OCc1cn([C@H]2C[C@H](c3ccccc3)N(Cc3cccs3)C[C@@H]2O)nn1)c1ccccc1
[47] COc1cccc2c1C(=O)c1c(O)c3c(c(O)c1C2=O)C[C@@](O)(C(=O)CO)C[C@@H]3O[C@H]1C[C@H](N)[C@@H](O)[C@H](C)O1
[48] COc1cccc2c1C(=O)c1c(O)c3c(c(O)c1C2=O)CC(O)(C(=O)CO)CC3OC1CC(N(C)C)C(O)C(C)O1 (stereo not drawn)
[49] O=C(NCCOC(=O)c1ccc(Cl)c(S(=O)(=O)N2CCCCC2)c1)c1ccncc1
Screen / compound no.	43	44	45	46	47	48	49
Rango dissoc inh	-3%	12%	/	/	-16%	20%	-11%
gsp antagonist	25µM*	-2%	/	/	?	-32%	40µM*
Rango-impB inh	-3%	-1%	/	/	17%	58µM*	-3%
gsp agonist	-3%[15.4 µM]	2%	7%	-44%	/	24%	15%
